Laboratory results taken from publication PMC7205193, “Crystal structure of the mitochondrial protein mitoNEET bound to a benze-sulfonide ligand” (Communications chemistry, 2019).

Target: T1, mitoNEET (Homo sapiens, UniProt Q9NZ45)
T1 sequence (Q9NZ45 32-108 limits assumed): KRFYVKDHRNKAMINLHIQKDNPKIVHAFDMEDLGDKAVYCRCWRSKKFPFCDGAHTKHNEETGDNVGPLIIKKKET
Experiment: [3H]rosiglitazone displacement binding assay (SPA)
Details: 20 nM [3H]rosiglitazone, 60 min, room temperature, 50 mM Tris pH 8; ± std error
Procedure: Recombinant mitoNEET was attached to nickel scintillation proximity assay (SPA) beads, and incubated with 20 nM [^3H] rosiglitazone (PerkinElmer) for 60 min at room temperature. The binding buffer was 50 mM Tris pH 8. White clear bottom 96-well plates were used for the assay, and the counts per minute analyzed in a MicroBeta Counter (Perkin Elmer). Data were analyzed as fraction of the total binding using a one-site model with GrapPad Prism 6 statistical software. All binding curves had R^2 > 0.9.

## NS(=O)(=O)c1cc(C(=O)O)c(NC2CCCCC2)cc1Cl [2k]
  IC50: 31.2 ± 1.02 µM
